Laboratory results published in ChEMBL document CHEMBL1144420 (J Med Chem, 2005).

The chains behind the UniProt entries cited, without tags or fusion partners.
UniProt P31652, whole entry: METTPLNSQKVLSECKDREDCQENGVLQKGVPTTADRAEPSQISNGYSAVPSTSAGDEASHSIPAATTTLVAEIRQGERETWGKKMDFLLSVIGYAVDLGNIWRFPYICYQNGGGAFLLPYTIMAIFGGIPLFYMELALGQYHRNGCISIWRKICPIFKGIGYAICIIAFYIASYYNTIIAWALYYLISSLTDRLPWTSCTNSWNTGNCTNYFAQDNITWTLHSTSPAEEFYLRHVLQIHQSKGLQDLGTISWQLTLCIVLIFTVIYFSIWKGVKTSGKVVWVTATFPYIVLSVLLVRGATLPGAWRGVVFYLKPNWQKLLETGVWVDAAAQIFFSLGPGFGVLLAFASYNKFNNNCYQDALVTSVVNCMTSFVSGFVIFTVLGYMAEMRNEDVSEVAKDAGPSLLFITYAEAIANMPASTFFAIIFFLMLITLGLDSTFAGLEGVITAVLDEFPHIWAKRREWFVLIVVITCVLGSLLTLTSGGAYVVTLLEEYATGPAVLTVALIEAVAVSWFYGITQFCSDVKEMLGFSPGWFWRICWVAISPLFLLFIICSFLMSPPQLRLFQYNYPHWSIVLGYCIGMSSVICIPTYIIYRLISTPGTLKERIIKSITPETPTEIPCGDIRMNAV

Target: Sodium-dependent serotonin transporter (Rattus norvegicus, UniProt P31652)
Assay: Displacement of [3H]paroxetine from Serotonin transporter of rat caudate putamen
Assay type: tissue-based

For `COC(=O)[C@H]1[C@@H](OC(=O)c2ccccc2)C[C@@H]2CC[C@H]1N2C` [COCAINE], the IC50 was 0.5 nM.
